Data on 23 molecules can be found in US20240009173A1, “Use of 5-HT3-Targeting Drugs for Treatment of Acute Kidney Injury” (priority 2020, published 2024).

The test system of assay [1] is AKI patients in ICU. The arrangement: species or system human. To be noted: in vivo.
The test system of assay [2] is AKI patients in ICU. Kind of assay: Logistic regression of in-ICU mortality of AKI patients (Example 2, Table 8). The note with it: human, in vivo.
For assay [3], the system named is AKI patients in ICU. The note with it: slope of serum creatinine changes.

For the molecule `OC[C@H]1O[C@@H](O[C@@H]2[C@@H](CO)OC(O)(CO)[C@H]2O)[C@H](O)[C@@H](O)[C@H]1O` (mixture of isomers) [Lactulose], in the assay on AKI patients in ICU [1], the Coefficient is listed as −0.198 and the “Hazard Ratio (HR)” value came out at 0.820.

`CC(=O)Nc1ccc(O)cc1` [Acetaminophen] showed a Coefficient in the assay with AKI patients in ICU [1] of −0.191. The “Estimate (regression coefficient)” value with AKI patients in ICU [2] is −0.332.

As to `CCCCc1oc2ccccc2c1C(=O)c1cc(I)c(OCCN(CC)CC)c(I)c1` [Amiodarone], in the assay on AKI patients in ICU [1], the Coefficient turned out to be 0.245 and the “Hazard Ratio (HR)” value came out at 1.28.

As to `C[C@H](CS)C(=O)N1CCC[C@H]1C(=O)O` [Captopril], in the assay on AKI patients in ICU [1], the Coefficient is −0.481 and the “Hazard Ratio (HR)” value is on record as 0.618.

Turning to `OC(Cn1cncn1)(Cn1cncn1)c1ccc(F)cc1F` [Fluconazole], in the assay on AKI patients in ICU [1], the Coefficient is recorded as −0.601 and the “Hazard Ratio (HR)” value amounted to 0.548.

Take `NS(=O)(=O)c1cc(C(=O)O)c(NCc2ccco2)cc1Cl` [Furosemide]: in the assay with AKI patients in ICU [1], the Coefficient is −0.413 and the “Hazard Ratio (HR)” value was determined as 0.662. The “Estimate (regression coefficient)” value in the assay with AKI patients in ICU [2] is given as −0.359.

Turning to `O=C(CCCN1CCC(O)(c2ccc(Cl)cc2)CC1)c1ccc(F)cc1` [Haloperidol], in the assay on AKI patients in ICU [1], the Coefficient is listed as −0.426 and the “Hazard Ratio (HR)” value amounted to 0.653. Besides, the “Estimate (regression coefficient)” value in the assay on AKI patients in ICU [2] was −0.553.

Take `NNc1nncc2ccccc12` [Hydralazine]: in the assay with AKI patients in ICU [1], the Coefficient is −0.283 and the “Hazard Ratio (HR)” value is 0.753. Besides, the “Estimate (regression coefficient)” value with AKI patients in ICU [2] is −0.323.

Regarding `NCCCC[C@H](N[C@@H](CCc1ccccc1)C(=O)O)C(=O)N1CCC[C@H]1C(=O)O` [Lisinopril], in the assay with AKI patients in ICU [1], the Coefficient is −0.596 and the “Hazard Ratio (HR)” value was 0.551. Further, the “Estimate (regression coefficient)” value in the assay with AKI patients in ICU [2] is reported as −0.857.

In the case of `O=S(=O)([O-])[O-].[Mg+2]` [Magnesium Sulfate], in the assay with AKI patients in ICU [1], the Coefficient was −0.445 and the “Hazard Ratio (HR)” value worked out at 0.641. The “time of maximum capability of decreasing creatinine level after administration” value in the assay with AKI patients in ICU [3] lay within 6 to 7 h.

With `C[C@@H](O)[C@H]1C(=O)N2C(C(=O)O)=C(S[C@@H]3CN[C@H](C(=O)N(C)C)C3)[C@H](C)[C@H]12` [Meropenem], in the assay with AKI patients in ICU [1], the Coefficient was −0.329 and the “Hazard Ratio (HR)” value is listed as 0.720.

For `CCN(CC)CCNC(=O)c1cc(Cl)c(N)cc1OC` [Metoclopramide], in the assay on AKI patients in ICU [1], the Coefficient is recorded as −0.403 and the “Hazard Ratio (HR)” value stood at 0.668.

As for `COCCc1ccc(OCC(O)CNC(C)C)cc1` (centres unmarked) [Metoprolol], in the assay on AKI patients in ICU [1], the Coefficient is −0.297 and the “Hazard Ratio (HR)” value is given as 0.743. Moreover, the “Estimate (regression coefficient)” value in the assay with AKI patients in ICU [2] is −0.454.

As to `CN1CC[C@]23c4c5ccc(O)c4O[C@H]2[C@@H](O)C=C[C@H]3[C@H]1C5` [Morphine], in the assay with AKI patients in ICU [1], the Coefficient came out at 1.02 and the “Hazard Ratio (HR)” value was found to be 2.76.

Turning to `O=[N+]([O-])OCC(CO[N+](=O)[O-])O[N+](=O)[O-]` [Nitroglycerin], in the assay on AKI patients in ICU [1], the Coefficient was determined as 0.190 and the “Hazard Ratio (HR)” value was found to be 1.21.

Regarding `NC[C@H](O)c1ccc(O)c(O)c1` [Norepinephrine], in the assay with AKI patients in ICU [1], the Coefficient was 0.566 and the “Hazard Ratio (HR)” value was found to be 1.76.

For `Cc1nccn1CC1CCc2c(c3ccccc3n2C)C1=O` (centres unmarked) [Ondansetron], in the assay with AKI patients in ICU [1], the Coefficient is recorded as −0.190 and the “Hazard Ratio (HR)” value is 0.827.

Turning to `COc1ccc2c3c1O[C@H]1C(=O)CC[C@@]4(O)[C@@H](C2)N(C)CC[C@]314` [Oxycodone], in the assay with AKI patients in ICU [1], the Coefficient is recorded as −0.595 and the “Hazard Ratio (HR)” value was 0.551. Moreover, in the assay with AKI patients in ICU [2], the “Estimate (regression coefficient)” value is listed as −1.070.

For `CC1=C(C/C=C(\C)CCC[C@H](C)CCC[C@H](C)CCCC(C)C)C(=O)c2ccccc2C1=O` [Phytonadione], in the assay on AKI patients in ICU [1], the Coefficient was −0.186 and the “Hazard Ratio (HR)” value was found to be 0.830.

As for `CCN1CCN(C(=O)N[C@@H](C(=O)N[C@@H]2C(=O)N3[C@@H]2SC(C)(C)[C@@H]3C(=O)O)c2ccccc2)C(=O)C1=O` [Piperacillin], in the assay with AKI patients in ICU [1], the Coefficient is given as −0.183 and the “Hazard Ratio (HR)” value was determined as 0.833.

Consider `CC(C)c1cccc(C(C)C)c1O` [Propofol], for which, in the assay with AKI patients in ICU [1], the Coefficient was −0.234 and the “Hazard Ratio (HR)” value came out at 0.791.

Regarding `CC(=O)CC(c1ccccc1)c1c(O)c2ccccc2oc1=O` (centres unmarked) [Warfarin], in the assay on AKI patients in ICU [1], the Coefficient was −1.03 and the “Hazard Ratio (HR)” value is given as 0.357.

Regarding Heparin, in the assay with AKI patients in ICU [1], the Coefficient is on record as −0.322 and the “Hazard Ratio (HR)” value came out at 0.725.
